From ChEMBL document CHEMBL3585305, “Structure-Based Design and Optimization of Multitarget-Directed 2H-Chromen-2-one Derivatives as Potent Inhibitors of Monoamine Oxidase B and Cholinesterases” (J Med Chem, 2015) come the findings set out here.

Chains of the proteins cited; added tags and fusions are not shown.
UniProt P21397, whole entry: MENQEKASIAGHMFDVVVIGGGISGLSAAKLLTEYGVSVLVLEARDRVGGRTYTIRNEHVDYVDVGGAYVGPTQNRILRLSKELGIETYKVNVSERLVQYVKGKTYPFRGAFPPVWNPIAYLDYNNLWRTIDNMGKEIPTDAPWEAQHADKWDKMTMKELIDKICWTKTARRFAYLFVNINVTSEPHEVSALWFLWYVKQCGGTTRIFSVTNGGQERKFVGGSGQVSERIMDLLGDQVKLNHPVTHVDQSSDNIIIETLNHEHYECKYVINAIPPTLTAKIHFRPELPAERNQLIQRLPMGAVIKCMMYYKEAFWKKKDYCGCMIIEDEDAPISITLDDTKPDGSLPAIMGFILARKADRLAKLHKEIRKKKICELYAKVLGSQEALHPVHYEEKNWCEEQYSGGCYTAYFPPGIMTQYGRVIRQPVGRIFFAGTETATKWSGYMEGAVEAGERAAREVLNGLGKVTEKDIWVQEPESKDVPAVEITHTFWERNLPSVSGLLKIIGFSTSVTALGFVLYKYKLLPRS

In the assay the target is Amine oxidase [flavin-containing] A (Homo sapiens, UniProt P21397). The assay can be described thus: Inhibition of human recombinant MAO-A using kynuramine substrate by spectrophotometric assay.

pIC50: −log10 of the molar value.

What is called pIC50 is the negative decadic logarithm of the IC50, by convention in mol/L. As for `C#CCN(C)Cc1ccccc1` [PARGYLINE], the pIC50 is 5.39.
